The test system of this experiment is SeV viral proteins (M, NP). Nature of the experiment: Western blotting of viral proteins (anti-M antibody, DN-1 antibody). The following applies: aspirin added two days after infection; media every two days, cells six days after addition.

`CC(=O)Oc1ccccc1C(=O)O` [aspirin, acetylsalicylic acid]: the “viral proteins in cultured media and infected cells” value was “viral proteins in the cultured media and in infected cells were both reduced”.

The values are drawn from patent US20040258668A1 (priority 2001, published 2004).
